The list shows a part of the results, in another mix than the full data. Results filed as inconclusive are left out. Active and inactive are the calls of the source. The call rests on the fitted dose curve.

This assay in a line: qHTS for Inhibitors of the Functional Ribonucleoprotein Complex (vRNP) of Lymphocytic Choriomeningitis Arenaviruses (LCMV): Viability assay - Alamar blue signal for LCMV Confirmatory Screen. The note with it: LCMV vRNP confirmatory screen cells; at 110 µM (top of the series). On the technique in general: qHTS replaces the single test concentration by a dilution series.

Consider `CCC(=O)N(c1ccccc1)C1(COC)CCN(CCc2cccs2)CC1`, for which the viability change, negative = toxic is inactive: -51.5%.

For the origin of these results see PubChem BioAssay AID1347088 (National Center for Advancing Translational Sciences (NCATS), 2019).
